{
  "source": "paper PMC11083565",
  "about": "“Computational Design of Novel Cyclic Peptides Endowed with Autophagy-Inhibiting Activity on Cancer Cell Lines” (International Journal of Molecular Sciences, 2024)",
  "origin": "cited, not measured here",
  "biological_target": "LC3B (Homo sapiens) (UniProt Q9GZQ8)",
  "conditions": "cited from earlier work",
  "data": [
    {"substance": "RavZ (from UniProt Q5ZUV9)", "values": [
      {"measurement": "Kd", "value": 0.26, "unit": "µM"}
    ]}
  ]
}
